Laboratory results as given in patent US20060251751A1, “Sophoridine and its use as an analgesic” (SHANGHAI FANGDA PHARMACEUTICALS, LTD., priority 2001, published 2006).

System: mice
Assay: Comparison of analgesic effects and synergistic activity between sophoridine and morphine (hot plate method)
Conditions: morphine hydrochloride 10 mg/kg orally

Structure (SMILES): CN1CC[C@]23c4c5ccc(O)c4O[C@H]2[C@@H](O)C=C[C@H]3[C@H]1C5.Cl [Morphine, morphine hydrochloride]
- Pain thresholds after admin. (seconds) 15 min. (15 min.): 35.1 ± 15.5 s
- Pain thresholds after admin. (seconds) 30 min. (30 min.): 44.8 ± 14.6 s
- Pain thresholds after admin. (seconds) 60 min. (60 min.): 32.4 ± 16.2 s
- Pain thresholds before admin. (before admin. (baseline)): 19.7 ± 4.4 s
